{"source": "patent US20220152156A1", "about": "“METHOD OF USING PEGYLATED INTERFERON-ALPHA” (PharmaEssentia Corporation, priority 2020, published 2022)", "type_in_all_cases": "in vivo, human", "key": {"JAK2V617F allele burden": {"tested_on": "JAK2V617F allele burden", "assay": "PROUD-PV/CONTINUATION-PV: JAK2V617F allele burden and molecular response (real-time PCR)"}, "PV patients [1]": {"tested_on": "PV patients", "assay": "PROUD-PV/CONTINUATION-PV: combined analysis of hematologic and molecular parameters", "experimental": "In the ongoing extension phase (CONTINUATION-PV or CONTI-PV), patients in the HU arm were permitted to switch to best available treatment. Efficacy assessments included a longitudinal analysis of complete hematological response and complete molecular response, defined by modified ELN criteria. Discontinued patients were considered non-responders. Data were analyzed for patients reaching 48 months and 60 months of treatment.\nA further analysis of combined hematologic and molecular parameters was performed, these being known to influence the risk of thrombosis and of progression in PV."}, "PV patients [2]": {"tested_on": "PV patients", "assay": "PROUD-PV/CONTINUATION-PV: safety, thromboembolic events, disease progression"}, "[3]": {"details": "AEs of special interest to interferon therapy, 4th year data"}, "[4]": {"details": "entire treatment period (5-year analysis)"}}, "data": [{"substance": "ropeginterferon alpha-2b", "values": [{"measurement": "Molecular response Responder/N", "setting": "JAK2V617F allele burden; month 36 (LOCF)", "value": "62/94"}, {"measurement": "Patients with JAK2V617F allele burden below the threshold of 1% (CMR)", "setting": "JAK2V617F allele burden; month 48", "value": 13}, {"measurement": "Patients with allele burden below 1% who also had a CHR", "setting": "JAK2V617F allele burden; month 48", "value": 11}, {"measurement": "JAK2V617F allele burden, mean", "setting": "JAK2V617F allele burden; month 48 (LOCF)", "value": 19.3, "unit": "%"}, {"measurement": "JAK2V617F allele burden, median", "setting": "JAK2V617F allele burden; month 48 (LOCF)", "value": 9.2, "unit": "%"}, {"measurement": "Molecular response Responder %", "setting": "JAK2V617F allele burden; month 48 (LOCF)", "value": 67.0, "unit": "%"}, {"measurement": "Molecular response Responder/N", "setting": "JAK2V617F allele burden; month 48 (LOCF)", "value": "63/94"}, {"measurement": "Patients with allele burden below 0.01%", "setting": "JAK2V617F allele burden; month 60", "value": 5}, {"measurement": "Patients with allele burden below 1%", "setting": "JAK2V617F allele burden; month 60", "value": 10}, {"measurement": "Patients with allele burden below 1% or below 0.01% who also had CHR", "setting": "JAK2V617F allele burden; month 60", "value": 14}, {"measurement": "JAK2V617F allele burden, mean", "setting": "JAK2V617F allele burden; month 60 (LOCF)", "value": 18.9, "unit": "%"}, {"measurement": "JAK2V617F allele burden, median", "setting": "JAK2V617F allele burden; month 60 (LOCF)", "value": 8.5, "unit": "%"}, {"measurement": "Molecular response Responder %", "setting": "JAK2V617F allele burden; month 60 (LOCF)", "value": 69.1, "unit": "%"}, {"measurement": "Molecular response Responder/N", "setting": "JAK2V617F allele burden; month 60 (LOCF)", "value": "65/94"}, {"measurement": "Median JAK2V617F allele burden", "setting": "JAK2V617F allele burden; over 4 years", "value": 9.8, "unit": "%"}, {"measurement": "Median JAK2V617F allele burden", "setting": "JAK2V617F allele burden; over 5 years of treatment", "value": 7.3, "unit": "%"}, {"measurement": "Rate of patients with allele burden >50% (FIG. 3)", "setting": "JAK2V617F allele burden; per year during the study period", "value": "declined steadily"}, {"measurement": "Combined hematocrit control and molecular response RR", "setting": "PV patients [1]; at the 5 year visit", "value": 3.52}, {"measurement": "Patients with well-controlled hematocrit (<45%) without phlebotomy and a molecular response", "setting": "PV patients [1]; at the 5 year visit", "value": 58.5, "unit": "%"}, {"measurement": "Combined analysis RR [95% CI] (Ropeg/Control)", "setting": "PV patients [1]; month 12 (EOT in PR)", "value": "0.73 (0.50-1.06)"}, {"measurement": "Combined hematologic and molecular parameters Responder %", "setting": "PV patients [1]; month 12 (EOT in PR)", "value": 33.0, "unit": "%"}, {"measurement": "Combined hematologic and molecular parameters Responder/N", "setting": "PV patients [1]; month 12 (EOT in PR)", "value": "31/94"}, {"measurement": "Combined analysis RR [95% CI] (Ropeg/Control)", "setting": "PV patients [1]; month 24 (LOCF)", "value": "2.26 (1.46-3.50)"}, {"measurement": "Combined hematologic and molecular parameters Responder %", "setting": "PV patients [1]; month 24 (LOCF)", "value": 55.3, "unit": "%"}, {"measurement": "Combined hematologic and molecular parameters Responder/N", "setting": "PV patients [1]; month 24 (LOCF)", "value": "52/94"}, {"measurement": "Combined analysis RR [95% CI] (Ropeg/Control)", "setting": "PV patients [1]; month 36 (LOCF)", "value": "2.17 (1.43-3.29)"}, {"measurement": "Combined hematologic and molecular parameters Responder %", "setting": "PV patients [1]; month 36 (LOCF)", "value": 57.5, "unit": "%"}, {"measurement": "Combined hematologic and molecular parameters Responder/N", "setting": "PV patients [1]; month 36 (LOCF)", "value": "54/94"}, {"measurement": "Combined analysis RR [95% CI] (Ropeg/Control)", "setting": "PV patients [1]; month 48 (LOCF)", "value": "2.79 (1.74-4.46)"}, {"measurement": "Combined hematologic and molecular parameters Responder %", "setting": "PV patients [1]; month 48 (LOCF)", "value": 57.5, "unit": "%"}, {"measurement": "Combined hematologic and molecular parameters Responder/N", "setting": "PV patients [1]; month 48 (LOCF)", "value": "54/94"}, {"measurement": "Combined analysis RR [95% CI] (Ropeg/Control)", "setting": "PV patients [1]; month 60 (LOCF)", "value": "3.26 (1.97-5.42)"}, {"measurement": "Combined hematologic and molecular parameters Responder %", "setting": "PV patients [1]; month 60 (LOCF)", "value": 58.5, "unit": "%"}, {"measurement": "Combined hematologic and molecular parameters Responder/N", "setting": "PV patients [1]; month 60 (LOCF)", "value": "55/94"}, {"measurement": "Rate of major thromboembolic adverse events, % of patients", "setting": "PV patients [2]; 2nd year", "value": 0.0, "unit": "%"}, {"measurement": "Rate of major thromboembolic adverse events, % of patients", "setting": "PV patients [2]; 3rd year", "value": 0.0, "unit": "%"}, {"measurement": "Disease-related transformation to myelofibrosis", "setting": "PV patients [2]; 4-year analysis", "value": "One case"}, {"measurement": "Rate of major thromboembolic adverse events, % of patients", "setting": "PV patients [2]; 4th year", "value": 1.1, "unit": "%"}, {"measurement": "Endocrine disorders, patients with treatment-related event, total for SOC", "setting": "PV patients [2]; [3]", "value": 5}, {"measurement": "Endocrine disorders, total for SOC, %", "setting": "PV patients [2]; [3]", "value": 3.9, "unit": "%"}, {"measurement": "Immune system disorders, total for SOC, %", "setting": "PV patients [2]; [3]", "value": 0.8, "unit": "%"}, {"measurement": "Musculoskeletal/connective tissue disorders, patients with treatment-related event, total for SOC", "setting": "PV patients [2]; [3]", "value": 2}, {"measurement": "Musculoskeletal/connective tissue disorders, total for SOC, %", "setting": "PV patients [2]; [3]", "value": 1.6, "unit": "%"}, {"measurement": "Psychiatric disorders, total for SOC, %", "setting": "PV patients [2]; [3]", "value": 0.8, "unit": "%"}, {"measurement": "Skin/subcutaneous tissue disorders, patients with treatment-related event, total for SOC", "setting": "PV patients [2]; [3]", "value": 2}, {"measurement": "Skin/subcutaneous tissue disorders, total for SOC, %", "setting": "PV patients [2]; [3]", "value": 1.6, "unit": "%"}, {"measurement": "Patients with adverse events (AEs)", "setting": "PV patients [2]; entire 4-year study period", "value": 89.8, "unit": "%"}, {"measurement": "Patients with serious adverse events (SAEs)", "setting": "PV patients [2]; entire 4-year study period", "value": 20.5, "unit": "%"}, {"measurement": "Patients with treatment related SAEs", "setting": "PV patients [2]; entire 4-year study period", "value": 2.4, "unit": "%"}, {"measurement": "Patients with treatment-related AEs", "setting": "PV patients [2]; entire 4-year study period", "value": 75.6, "unit": "%"}, {"measurement": "Patients with treatment-related AEs ≥ grade 3", "setting": "PV patients [2]; entire 4-year study period", "value": 15.0, "unit": "%"}, {"measurement": "Major thromboembolic events, number", "setting": "PV patients [2]; entire 5 year treatment period", "value": 6}, {"measurement": "Major thromboembolic adverse events per patient-year", "setting": "PV patients [2]; entire treatment period", "value": 1.2, "unit": "%-patient year"}, {"measurement": "Patients with a major thromboembolic adverse event", "setting": "PV patients [2]; entire treatment period", "value": 4.2, "unit": "%"}, {"measurement": "Rate of grade ≥3 drug-related adverse events", "setting": "PV patients [2]; entire treatment period", "value": 16.5, "unit": "%"}, {"measurement": "Adverse drug reactions (ADRs), % of patients", "setting": "PV patients [2]; [4]", "value": 78.7, "unit": "%"}, {"measurement": "Adverse drug reactions (ADRs), patients", "setting": "PV patients [2]; [4]", "value": 100}, {"measurement": "Adverse events (AEs), % of patients", "setting": "PV patients [2]; [4]", "value": 91.3, "unit": "%"}, {"measurement": "Adverse events (AEs), patients", "setting": "PV patients [2]; [4]", "value": 116}, {"measurement": "Grade 3, 4 or 5 ADRs, % of patients", "setting": "PV patients [2]; [4]", "value": 16.5, "unit": "%"}, {"measurement": "Grade 3, 4 or 5 ADRs, patients", "setting": "PV patients [2]; [4]", "value": 21}, {"measurement": "Serious adverse events (SAEs), % of patients", "setting": "PV patients [2]; [4]", "value": 23.6, "unit": "%"}, {"measurement": "Serious adverse events (SAEs), patients", "setting": "PV patients [2]; [4]", "value": 30}, {"measurement": "Treatment-related SAEs, % of patients", "setting": "PV patients [2]; [4]", "value": 3.1, "unit": "%"}, {"measurement": "Treatment-related SAEs, patients", "setting": "PV patients [2]; [4]", "value": 4}, {"measurement": "Patients reporting grade ≥3 treatment-related adverse events", "setting": "PV patients [2]; fifth year", "value": "Three patients"}, {"measurement": "Patients reporting grade ≥3 treatment-related adverse events, %", "setting": "PV patients [2]; fifth year", "value": 3.8, "unit": "%"}, {"measurement": "Patients who withdrew due to drug-related toxicity", "setting": "PV patients [2]; fifth year", "value": "one patient"}, {"measurement": "Patients with treatment-related adverse events", "setting": "PV patients [2]; fifth year", "value": 25.6, "unit": "%"}, {"measurement": "Adverse drug reactions (ADRs), % of patients", "setting": "PV patients [2]; fifth year of treatment", "value": 25.6, "unit": "%"}, {"measurement": "Adverse drug reactions (ADRs), patients", "setting": "PV patients [2]; fifth year of treatment", "value": 20}, {"measurement": "Adverse events (AEs), % of patients", "setting": "PV patients [2]; fifth year of treatment", "value": 57.7, "unit": "%"}, {"measurement": "Grade 3, 4 or 5 ADRs, % of patients", "setting": "PV patients [2]; fifth year of treatment", "value": 3.8, "unit": "%"}, {"measurement": "Grade 3, 4 or 5 ADRs, patients", "setting": "PV patients [2]; fifth year of treatment", "value": 3}, {"measurement": "Serious adverse events (SAEs), % of patients", "setting": "PV patients [2]; fifth year of treatment", "value": 10.3, "unit": "%"}, {"measurement": "Serious adverse events (SAEs), patients", "setting": "PV patients [2]; fifth year of treatment", "value": 8}, {"measurement": "Treatment-related SAEs, % of patients", "setting": "PV patients [2]; fifth year of treatment", "value": 1.3, "unit": "%"}, {"measurement": "Additional cases of hypothyroidism compared to the 4th year data", "setting": "PV patients [2]; fifth year, AEs of special interest to interferon therapy", "value": "only one additional case"}, {"measurement": "Rate of patients with treatment-related adverse events", "setting": "PV patients [2]; in the 4th year", "value": 28.7, "unit": "%"}]}]}
